Measurements reported in patent US20240293405A1, “(1H-PYRROLO[2,3-B]PYRIDIN-1-YL)PYRIMIDIN-2-YL-AMINO-PHENYL-ACRYLAMIDE INHIBITORS OF EGFR FOR USE IN THE TREATMENT OF BRAIN TUMORS” (Dana-Farber Cancer Institute, Inc., priority 2021, published 2024).

How the values were obtained:
[1] = Kim et al., Drug Metab. Dispos. 2019; cited from earlier work
[2] = Brain and plasma exposure after single oral dose; format: in vivo, Sprague Dawley rats; settings: gefitinib 50 mg/kg PO, 7 hr, individual animal
[3] = Brain and plasma exposure after single oral dose; format: in vivo, Sprague Dawley rats; settings: own data, oral dosing in rats
Procedure: Compound 1 and gefitinib were administered to Sprague Dawley rats in a single oral (PO) dose (30 mg/kg or 50 mg/kg, respectively).

[4] = 3 mg/kg IV infusion over 5 h, individual animal, Compound 2 as metabolite in Compound 1-dosed rats

Brain/Plasma (ratios) [2]: 0.546 | Brain Penetration (% of B/P ratio in preclinical model) [3]: 22% | Plasma Concentration ([4]; 3 h): 225 ng/mL | Brain/Plasma (ratios) ([4]; 5 h): 0.528
SMILES: COc1cc2ncnc(Nc3ccc(F)c(Cl)c3)c2cc1OCCCN1CCOCC1 [Gefitinib, reference compound]
Brain Penetration (% of B/P ratio in preclinical model) [1]: 27%

Read-outs that look alike come from different tables or passages of the source.
